From PubChem BioAssay AID1894 (NMMLSC, 2009) come the findings set out here.

The chains behind the UniProt entries cited, without tags or fusion partners. Where a name states a change or a piece, a line headed by the entry shows the natural chain unless it says otherwise.
UniProt Q99759: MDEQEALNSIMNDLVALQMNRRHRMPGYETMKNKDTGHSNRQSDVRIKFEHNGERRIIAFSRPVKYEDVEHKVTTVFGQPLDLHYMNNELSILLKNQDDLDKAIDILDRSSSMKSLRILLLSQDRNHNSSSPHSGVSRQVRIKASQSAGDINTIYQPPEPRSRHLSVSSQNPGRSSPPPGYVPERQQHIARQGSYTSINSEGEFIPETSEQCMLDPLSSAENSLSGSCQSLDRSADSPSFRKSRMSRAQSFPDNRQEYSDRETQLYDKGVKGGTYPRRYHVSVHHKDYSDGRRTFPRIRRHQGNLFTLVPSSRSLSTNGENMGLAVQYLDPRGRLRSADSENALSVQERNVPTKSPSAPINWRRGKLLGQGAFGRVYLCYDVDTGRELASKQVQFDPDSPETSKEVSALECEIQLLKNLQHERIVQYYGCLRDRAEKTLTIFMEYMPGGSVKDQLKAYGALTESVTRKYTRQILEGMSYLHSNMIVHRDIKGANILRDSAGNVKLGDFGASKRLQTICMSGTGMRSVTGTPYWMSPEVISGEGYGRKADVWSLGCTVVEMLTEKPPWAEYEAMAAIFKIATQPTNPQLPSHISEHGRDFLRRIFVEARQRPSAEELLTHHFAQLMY

This is a selection; strong and weak results do not stand in their true shares. Active and inactive are the calls of the source.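 The calls were made as follows: active = binding response below 72% of control, or above a set upper limit, though filed actives all read lower; inactive = the rest.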

For the test, the target named is Mitogen-activated protein kinase kinase kinase 3 (Homo sapiens) (UniProt Q99759). Briefly: blockers of MEK5-MEKK3 PB1 association – biochemical, bead multiplex flow cytometry, single concentration, wildtype, confirmation (AID 1894).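 Also: 100% = DMSO only wells and 0% = binding blocked by excess unlabeled MEK5; lower values mean stronger disruption of MEK5 binding to MEKK3.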 The conditions noted are these: Alexa488-MEK5 binding to MEKK3, at 10 µM, hits give low values. A general note: In flow cytometry, cells or beads pass a laser one at a time.
On to `CN(CCCl)Cc1cc(Cl)c(NC2=NCCN2)c(Cl)c1`, for which the binding response (% of control) was inactive: 99%. For `CCC1=CC2Cc3nc4ccc(Cl)cc4c(N)c3C(C1)C2` (configuration not stated) the value was inactive: 103%.
